The test concerns the target Aldo-keto reductase family 1 member B1 (Homo sapiens, UniProt P15121). The experiment in a line: Inhibition of human recombinant Aldose reductase […].

For one compound, IC50 results are on record in ChEMBL document CHEMBL1145005 (J Med Chem, 2003).

The term IC50 denotes the concentration that inhibits the measured activity by half. Take `O=C(O)Cc1nn(Cc2nc3cc(C(F)(F)F)ccc3s2)c(=O)c2ccccc12` [ZOPOLRESTAT]: the IC50 is 4 nM.
